From paper PMC10901556, “Conservation of Affinity Rather Than Sequence Underlies a Dynamic Evolution of the Motif-Mediated p53/MDM2 Interaction in Ray-Finned Fishes” (Molecular Biology and Evolution, 2024)

How the values were obtained:
[1] = molecular target: MDM2 SWIB domain, Lepisosteus oculatus; experiment: Fluorescence polarization direct binding of FITC-p53TADhuman^15–26; settings: FITC-p53TADhuman^15–26 15 nM, increasing MDM2; 1-site binding model; read-out: Kd for probe
[2] = molecular target: MDM2 SWIB domain, Anguilla anguilla; experiment: as above; settings: FITC-p53TADhuman^15–26 15 nM, increasing MDM2; 1-site binding model; read-out: Kd for probe
[3] = molecular target: reconstructed MDM2Actinopterygii^ML; experiment: as above; parameters: species or system ancestral Actinopterygii (reconstructed); settings: labeled probe; input of the Ki calculation
[4] = molecular target: MDM2 SWIB domain, Channa argus; experiment: as above; settings: FITC-p53TADhuman^15–26 15 nM, increasing MDM2; 1-site binding model; read-out: Kd for probe
[5] = molecular target: MDM2 SWIB domain, Takifugu rubripes; experiment: as above; settings: labeled probe (FITC-p53TADhuman 15–26) on T.rub MDM2; input of the Ki calculation
[6] = molecular target: MDM2 SWIB domain, Maylandia zebra; experiment: as above; settings: labeled probe (FITC-p53TADhuman 15–26) on M.zeb MDM2; input of the Ki calculation
[7] = molecular target: reconstructed MDM2Actinopterygii^AltAll; experiment: as above; parameters: species or system ancestral Actinopterygii (reconstructed); settings: labeled probe; input of the Ki calculation
[8] = molecular target: reconstructed MDM2Teleost AltAll; experiment: as above; parameters: species or system ancestral teleost (reconstructed); settings: labeled probe; input of the Ki calculation
[9] = molecular target: MDM2 SWIB domain, Clupea harengus; experiment: as above; settings: FITC-p53TADhuman^15–26 15 nM, increasing MDM2; 1-site binding model; read-out: Kd for probe
[10] = molecular target: MDM2 SWIB domain, Oncorhynchus kisutch; experiment: as above; settings: labeled probe (FITC-p53TADhuman 15–26) on O.kis MDM2; input of the Ki calculation
[11] = molecular target: reconstructed MDM2Teleost ML; experiment: as above; parameters: species or system ancestral teleost (reconstructed); settings: labeled probe; input of the Ki calculation
MDM2D.rerio SWIB domain = molecular target: T1, MDM2D.rerio SWIB domain (Danio rerio, UniProt O42354); experiment: Fluorescence polarization displacement assay; type: binding
T1 construct: NusA-TEV-His6-PreScission (N, cleaved yes); made in house; host or cells: Escherichia coli BL21 (DE3)
T1 sequence (O42354 with tags, fused parts or gaps): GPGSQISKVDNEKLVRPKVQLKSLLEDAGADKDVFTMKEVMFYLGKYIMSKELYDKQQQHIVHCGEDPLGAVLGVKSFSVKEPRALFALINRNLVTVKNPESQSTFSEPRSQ

Row | Structure (SMILES) | Kd [1] [nM] | Kd [2] [nM] | Kd [3] [nM] | Kd [4] [nM] | Kd [5] [nM] | Kd [6] [nM] | Kd [7] [nM] | Kd [8] [nM] | Kd [9] [nM] | Kd [10] [nM] | Kd [11] [nM] | IC50 (MDM2D.rerio SWIB domain) [nM] | Ki (MDM2D.rerio SWIB domain; average of the replicates, D.rer MDM2 1500 nM, probe 15 nM, Kd for probe 188 nM) [nM]
1 | CC(C)C[C@H](NC(=O)[C@H](CC(C)C)NC(=O)[C@H](CCCCN)NC(=O)[C@H](Cc1c[nH]c2ccccc12)NC(=O)[C@H](CC(C)C)NC(=O)[C@H](CC(=O)O)NC(=O)[C@H](CO)NC(=O)[C@H](Cc1ccccc1)NC(=O)[C@@H](NC(=O)[C@H](CCC(=O)O)NC(=O)[C@H](CCC(N)=O)NC(=O)[C@H](CO)NC(=S)Nc1ccc2c(c1)C(=O)OC21c2ccc(O)cc2Oc2cc(O)ccc21)[C@@H](C)O)C(=O)O [FITC-p53TADhuman^15–26] | 78 | 202 | 126 | 487 | 290 | 334 | 77 | 158 | 399 | 332 | 185 | – | –
2 | CC(=O)N[C@@H](CO)C(=O)N[C@@H](CCC(N)=O)C(=O)N[C@@H](CCC(=O)O)C(=O)N[C@H](C(=O)N[C@@H](Cc1ccccc1)C(=O)N[C@@H](CO)C(=O)N[C@@H](CC(=O)O)C(=O)N[C@@H](CC(C)C)C(=O)N[C@@H](Cc1c[nH]c2ccccc12)C(=O)N[C@@H](CCCCN)C(=O)N[C@@H](CC(C)C)C(=O)N[C@@H](CC(C)C)C(=O)N1CCC[C@H]1C(=O)O)[C@@H](C)O [H.sap p53 short, reference compound] | – | – | – | – | – | – | – | – | – | – | – | 8460 | 795
